The test relates to Cholecystokinin receptors CCK1 (Rattus norvegicus)/CCK2 (Mus musculus). Put plainly: Selectivity ratio of IC50 of CCK1 to that of CCK2.

As to `O=C1NN(C(=O)Nc2ccc(Br)cc2)[C@H](c2ccccc2)[C@H]1c1ccccc1`, the Selectivity was determined as 0.05.

Regarding `O=C1NN(C(=O)Nc2ccc(Br)cc2)[C@@H](c2ccccc2)[C@@H]1c1ccccc1`, the Selectivity came out at 0.0009.
